# Assay results as given in patent US12692267B2 (Madera Therapeutics, LLC, priority 2019, dated 2026).
# Target: recombinant human caseinolytic peptidase hClpP (Homo sapiens, UniProt Q16740)
# Experiment: hClpP peptide hydrolysis assay (Ac-WLA-AMC)
# Settings: 1 uM, Protocol 2
smiles,measurement,value
"O=C1C2=C(CCN(Cc3ccccc3)C2)N2CCN=C2N1Cc1ccc(F)cc1F [Ex. 60, 11-benzyl-7-[(2,4-difluorophenyl)methyl]-2,5,7,11-tetraazatricyclo[7.4.0.0^2,6]trideca-1(9),5-dien-8-one, reference compound]",Time course of hClpP activity,time-dependent increase in coumarin fluorescence release
